This passage reports Ki results from patent US8278343B2, “Pyrrolidines” (Pfizer Inc., priority 2008, dated 2012).

The chains behind the UniProt entries cited, without tags or fusion partners.
UniProt P43116, whole entry: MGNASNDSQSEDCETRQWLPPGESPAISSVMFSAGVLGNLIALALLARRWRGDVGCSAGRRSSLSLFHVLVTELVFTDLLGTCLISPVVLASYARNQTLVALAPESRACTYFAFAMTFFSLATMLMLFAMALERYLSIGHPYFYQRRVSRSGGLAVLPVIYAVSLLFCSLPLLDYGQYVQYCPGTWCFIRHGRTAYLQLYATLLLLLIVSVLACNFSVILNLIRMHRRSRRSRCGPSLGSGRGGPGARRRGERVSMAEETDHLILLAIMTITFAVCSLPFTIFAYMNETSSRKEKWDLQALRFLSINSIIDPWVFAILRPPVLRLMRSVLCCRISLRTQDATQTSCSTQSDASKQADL

The assay concerns the target recombinant human EP-2 receptor (Homo sapiens, UniProt P43116). The assay can be described thus: In vitro antagonist potency against recombinant human prostaglandin E2 (EP-2) receptor in CHO cells (cAMP, Protocol 1). Particulars: read-out: EP2 Ki; CHO cells expressing recombinant human EP-2 receptor, stimulated with 5 nM PGE2; cAMP readout; Ki by Cheng-Prusoff equation. On the procedure:
1.0 Measurement of In Vitro Antagonist Potency (IC50) of Compounds Against Recombinant Human Prostaglandin E2 Receptor in CHO Cells
The prostaglandin E2 (EP-2) receptor is Gs coupled and agonism of the receptor by PGE2 results in activation of intracellular adenylate cyclase enzymes that synthesise the second messenger signalling molecule, adenosine 3′,5′-cyclic monophosphate (cAMP). CHO cells expressing the recombinant human EP-2 receptor are stimulated with PGE2 (5 nM) equivalent to approximately […] values to give the maximal cAMP signal. Decreases in cAMP levels following treatment of stimulated recombinant EP-2 cells with potential antagonist compounds were measured and potency (IC50) calculated as follows.
A Chinese hamster ovary (CHO) cell line stably transfected with full length cDNA encoding human Prostaglandin E2 was established using standard molecular biology methods. Test compounds were dissolved in dimethyl sulphoxide (DMSO) at 4 mM. 11 point half log unit increment dilution series of test compound were prepared in DMSO then diluted 1 in 40 in a buffer comprised of phosphate buffered saline (PBS) and 0.05% pluronic F-127 surfactant. Freshly cultured cells at 80-90% confluence were harvested and re-suspended in 90% growth media/10% DMSO. The cells were frozen using a planar freezer and stored in frozen aliquots in cryovials in liquid nitrogen until the day of the experiment. A vial of cells was defrosted in a 37° C. water bath for 2 min, then transferred to 10 ml of Dulbecco's Modified Eagle's Medium (DMEM). The cells were then centrifuged for 5 min at 1000 g and the pellet re-suspended at 1,000,000 cells/ml in DMEM. 5,000 cells (5 ul) were added to 5 ul of the compound dilution series in a 384 well assay plate and pre-incubated for 30 min at 37° C. 5 ul of agonist (15 nM PGE2 in PBS to give 5 nM FAC) was added and plates further incubated for 90 min at 37° C. The relative cAMP concentration in each well was then measured using a β-galactosidase enzyme fragment complementation method purchased in kit form as the Discoverx cAMP II kit from GE Healthcare, UK. […] Sigmoidal curves were fitted to plots of log10 inhibitor concentration vs percent effect. IC50 estimates were determined as the concentration of test compound giving an effect half way between the bottom and top asymptotes of the sigmoidal dose response curve. Each experiment included an IC50 determination for the literature compound as a standard to track assay consistency and allow fair comparison between values obtained in different experiments. The EC50 of PGE2 is used in combination with the ligand concentration in the assay to determine Ki values for antagonist dose responses using the Cheng-Prusoff equation. Consequently an agonist dose response curve is carried out for each experiment using the same incubation as the antagonist plate.
The term Ki denotes the equilibrium dissociation constant of an inhibitor or competing ligand from its target. Turning to `COc1ccc(C(=O)N2CCC(COc3ccc(-c4ccc(C#N)cc4)cc3)(C(=O)O)C2)cc1` (single isomer, unassigned), the Ki amounted to 43.8 nM.
Then `COc1ccccc1C(=O)N1CCC(COc2ccc(-c3ccc(C#N)cn3)cc2)(C(=O)O)C1` (single isomer, unassigned), with 979 nM; and `N#Cc1ccc(-c2ccc(OCC3(C(=O)O)CCN(C(=O)c4ccc(F)cc4)C3)cc2)cc1` (single isomer, unassigned), with 82.1 nM; and `N#Cc1ccc(-c2ccc(OCC3(C(=O)O)CCN(C(=O)c4ccc(F)cc4)C3)cn2)cc1` (single isomer, unassigned), with 94.6 nM.
Then `NC(=O)c1cnc(-c2ccc(OCC3(C(=O)O)CCN(C(=O)c4ccc(F)cc4)C3)cc2)nc1` (single isomer, unassigned), with 7.29 nM.
Take `O=C(c1ccc(F)cc1)N1CCC(COc2cnc(-c3ccc(F)cc3)cn2)(C(=O)O)C1` (single isomer, unassigned): the Ki was found to be 42.7 nM.
Consider `O=C(c1ccc(F)cc1)N1CCC(COc2ccc(-c3ccc(F)cc3)nc2)(C(=O)O)C1` (single isomer, unassigned) [8], for which the Ki was found to be 10.9 nM.
Turning to `O=C(c1ccc(F)cc1)N1CCC(COc2ccc(-c3ccc(F)cc3)nc2)(C(=O)O)C1` (single isomer, unassigned) [9], the Ki worked out at 520 nM.
Turning to `N#Cc1ccc(-c2ccc(OCC3(C(=O)O)CCN(C(=O)c4ccc(F)cc4)C3)cc2)nc1` (single isomer, unassigned) [19], the Ki worked out at 2.35 nM.
The value for `N#Cc1ccc(-c2ccc(OCC3(C(=O)O)CCN(C(=O)c4ccc(F)cc4)C3)cc2)nc1` (single isomer, unassigned) [20] was 89 nM; that for `O=C(c1ccc(F)cc1)N1CCC(COc2ccc(-c3ncc(F)cn3)cc2)(C(=O)O)C1` (single isomer, unassigned) [21] was 4.09 nM; that for `O=C(c1ccc(F)cc1)N1CCC(COc2ccc(-c3ncc(F)cn3)cc2)(C(=O)O)C1` (single isomer, unassigned) [22] was 142 nM.
With `O=C(c1ccc(Cl)cc1)N1CCC(COc2ccc(-c3ccc(Cl)cn3)cc2)(C(=O)O)C1` (single isomer, unassigned) [28], the Ki came out at 0.334 nM.
Regarding `O=C(c1ccc(Cl)cc1)N1CCC(COc2ccc(-c3ccc(Cl)cn3)cc2)(C(=O)O)C1` (single isomer, unassigned) [29], the Ki was found to be 28.2 nM.
Then `COc1ccccc1C(=O)N1CCC(COc2ccc(-c3ccc(Cl)cn3)cc2)(C(=O)O)C1` (single isomer, unassigned) [77], with 213 nM; and `COc1ccccc1C(=O)N1CCC(COc2ccc(-c3ccc(Cl)cn3)cc2)(C(=O)O)C1` (single isomer, unassigned) [78], with 511 nM.
